Where two headings read alike, the source gives them in different places.
Columns and labels:
AChE [1] = target: T1, AChE (Homo sapiens, UniProt P22303); assay: Solid-phase AChE assay, screening for reactivators of inhibited AChE; conditions: for reactivation activity on inhibited AChE: screen and expansion libraries, inhibitor DIPF or paraoxon
AChE [2] = target: T1, AChE
mouse PO-inhibited AChE = mouse PO-inhibited AChE (Mus musculus, UniProt P21836); assay: Reactivation of mouse PO-inhibited AChE compared with human; conditions: three hours
[3] = target: human AChE inhibited by paraoxon (Homo sapiens, UniProt P22303); assay: Reactivation of paraoxon-inhibited human AChE; conditions: concentrations below saturation on hu-AChE
[4] = target: paraoxon inactivated huBuChE (Homo sapiens, UniProt P06276); conditions: human BuChE inactivated by paraoxon
AChE [5] = target: AChE (Mus musculus, UniProt P21836); conditions: mice, tissues harvested 24 hours after challenge
AChE [6] = target: T1, AChE; assay: Protection of AChE from DFP
AChE [7] = target: T1, AChE; assay: AChE activity with allosteric activators
Solubility = conditions: comparison in words
DFP-inhibited AChE = DFP-inhibited AChE (Homo sapiens, UniProt P22303); assay: Reactivation of DFP-inhibited AChE (rate constants, reactivation efficacy)
huAChE adduct with SIMP = huAChE adduct with SIMP (Homo sapiens, UniProt P22303); conditions: soman-like adduct, after aging
BALB mice = assay: Toxicity of ADOC in BALB mice

Sequences of proteins named here, by UniProt entry; tags and fusion partners are left off. Residues count along the entry.
UniProt P22303, 32-614 limits assumed: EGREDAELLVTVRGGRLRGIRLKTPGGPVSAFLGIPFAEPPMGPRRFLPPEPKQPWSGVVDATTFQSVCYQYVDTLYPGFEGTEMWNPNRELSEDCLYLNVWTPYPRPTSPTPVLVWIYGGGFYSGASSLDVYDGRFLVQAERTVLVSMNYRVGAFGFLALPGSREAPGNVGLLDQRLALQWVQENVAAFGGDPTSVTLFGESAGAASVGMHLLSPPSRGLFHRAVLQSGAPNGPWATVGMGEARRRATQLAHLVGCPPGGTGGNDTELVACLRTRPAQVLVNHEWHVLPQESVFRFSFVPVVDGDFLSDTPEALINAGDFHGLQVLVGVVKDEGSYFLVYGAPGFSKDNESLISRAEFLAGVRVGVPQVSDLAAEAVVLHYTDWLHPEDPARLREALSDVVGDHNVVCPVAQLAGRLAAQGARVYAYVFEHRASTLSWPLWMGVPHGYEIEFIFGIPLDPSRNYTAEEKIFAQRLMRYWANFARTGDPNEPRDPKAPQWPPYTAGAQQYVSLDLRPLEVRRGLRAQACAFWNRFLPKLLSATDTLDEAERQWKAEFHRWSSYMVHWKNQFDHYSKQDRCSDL
UniProt P21836, 32-614 limits assumed: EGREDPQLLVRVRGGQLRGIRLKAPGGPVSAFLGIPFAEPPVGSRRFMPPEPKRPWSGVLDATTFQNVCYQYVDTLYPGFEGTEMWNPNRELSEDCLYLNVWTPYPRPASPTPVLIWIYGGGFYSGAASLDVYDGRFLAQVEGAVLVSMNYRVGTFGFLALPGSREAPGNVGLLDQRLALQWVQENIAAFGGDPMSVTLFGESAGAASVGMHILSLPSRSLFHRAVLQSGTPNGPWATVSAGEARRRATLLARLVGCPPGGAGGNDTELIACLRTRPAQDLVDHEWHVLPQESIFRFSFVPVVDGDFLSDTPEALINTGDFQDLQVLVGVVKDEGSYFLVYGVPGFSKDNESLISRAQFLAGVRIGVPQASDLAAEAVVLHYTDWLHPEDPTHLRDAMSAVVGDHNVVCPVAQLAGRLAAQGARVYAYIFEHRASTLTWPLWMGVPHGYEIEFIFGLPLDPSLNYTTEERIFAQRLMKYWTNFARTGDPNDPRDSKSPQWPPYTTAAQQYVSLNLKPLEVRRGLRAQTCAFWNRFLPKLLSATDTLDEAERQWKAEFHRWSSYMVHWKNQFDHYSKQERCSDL
UniProt P06276, 29-602 limits assumed: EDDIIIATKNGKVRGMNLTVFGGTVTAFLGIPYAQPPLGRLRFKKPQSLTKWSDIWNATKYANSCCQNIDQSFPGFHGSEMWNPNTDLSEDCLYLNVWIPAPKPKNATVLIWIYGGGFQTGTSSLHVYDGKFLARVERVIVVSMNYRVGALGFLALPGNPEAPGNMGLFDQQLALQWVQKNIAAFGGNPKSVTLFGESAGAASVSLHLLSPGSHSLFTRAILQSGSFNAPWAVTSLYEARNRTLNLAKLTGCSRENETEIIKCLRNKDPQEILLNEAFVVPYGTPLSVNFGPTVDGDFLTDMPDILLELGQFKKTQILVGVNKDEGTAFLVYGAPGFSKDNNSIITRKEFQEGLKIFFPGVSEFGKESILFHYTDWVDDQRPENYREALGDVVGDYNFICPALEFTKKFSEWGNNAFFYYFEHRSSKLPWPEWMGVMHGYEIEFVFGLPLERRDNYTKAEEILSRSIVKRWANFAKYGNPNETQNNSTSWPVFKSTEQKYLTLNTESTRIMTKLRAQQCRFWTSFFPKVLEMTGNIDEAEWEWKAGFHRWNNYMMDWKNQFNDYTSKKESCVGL

Oc1ccc(Nc2ccnc3cc(Cl)ccc23)cc1
reactivation activity on inhibited AChE (AChE [1]): identified as reactivators

COc1cc(C(c2cc3c(cc2O)OCO3)N2CCOCC2)cc(OC)c1OC (centres unmarked)
reactivation activity on inhibited AChE (AChE [1]): identified as reactivators

CCN(CC)Cc1cc(Nc2ccnc3cc(Cl)ccc23)ccc1O
reversibility of AChE inhibition (AChE [2]): reversible
reactivation of mouse AChE compared with human (mouse PO-inhibited AChE): faster reactivation of mice and guinea pig AChE than for human
reactivation of mouse AChE compared with human (mouse PO-inhibited AChE; listed as ADQ): better than for human analog
reactivation rate (kr2) compared with 2-PAM and HI-6 [3]: faster
Ka, reactivation (AChE [1]): 3 µM
reactivation activity compared with chloroquine (AChE [1]): higher reactivation activity than chloroquine
reactivation of BuChE [4]: reactivated
AChE activity in tissues after DFP challenge (AChE [5]): relatively low

8-((Dimethylamino)me)-3-(2-fluorophenoxy)-7-hydroxy-2-methyl-4H-chromoen-4-one
reactivation activity on inhibited AChE (AChE [1]): identified as reactivators

2-(4-Bromo-phenox)-3-(3-dimethylaminomethyl-2,4-dihydroxy-phenyl)-ethanone
reactivation activity on inhibited AChE (AChE [1]): identified as reactivators

Cc1onc(-c2ccccc2Cl)c1C(=O)N[C@@H]1C(=O)N2[C@@H]1SC(C)(C)[C@@H]2C(=O)O
reactivation activity on inhibited AChE (AChE [1]): reactivators of AChE

CN1CCN(CCCN2c3ccccc3Sc3ccc(Cl)cc32)CC1
protection of AChE from DFP (AChE [6]): protect against DFP
protection of AChE from DFP (AChE [6]; listed as Prochlorperazine): effective protector
activation of AChE activity (AChE [7]): activators

CN(C)Cc1cc(C(C)(C)CC(C)(C)C)ccc1O
reactivation activity on inhibited AChE (AChE [1]): identified as reactivators

5-[3-(4-Methyl-piperazine-1-yl)-propyl]-10,11-dihydro-5H-dibenzo[b,f]azepeine
activation of AChE activity (AChE [7]): decrease

1-Piperidinomethyl-2-napthol
reactivation activity on inhibited AChE (AChE [1]): identified as reactivators

CN1CCN(CCCN2c3ccccc3Sc3ccc(C(F)(F)F)cc32)CC1
protection of AChE from DFP (AChE [6]): protect against DFP
activation of AChE activity (AChE [7]): activators

NCCCC[C@H](N)C(=O)O
activation of AChE activity (AChE [7]): activators

O=C(NCCCn1ccnc1)c1cc(-c2ccc(Br)cc2)nc2ccccc12
solubility (Solubility): more soluble than amodiaquine
toxicity, distress in mice (mice; 500 mg/kg): not obviously toxic
LD50 (mice; mice): > 500 mg/kg
reactivation of BuChE [4]: do not reactivate

Cc1cc(CN(C)C)cc(CN(C)C)c1O
reactivation activity on inhibited AChE (AChE [1]): identified as reactivators

2-(4,5-Dihydro-1H-imidizol-2-yl)phenol
reactivation activity on inhibited AChE (AChE [1]): identified as reactivators

1-Morpholinomethyl-2-napthol
reactivation activity on inhibited AChE (AChE [1]): identified as reactivators

NC12CC3CC(CC(C3)C1)C2
protection of AChE (AChE [6]; 500 μM): enhanced protection
protection of AChE (AChE [6]; 50 and 500 μM): provide protection
activation of AChE activity (AChE [7]): activators

CC(N)C12CC3CC(CC(C3)C1)C2 (centres unmarked)
activation of AChE activity (AChE [7]): activators

N=C(N)NCCC[C@H](N)C(=O)O
activation of AChE activity (AChE [7]): activators

pralidoxine
reactivation rate constant (DFP-inhibited AChE): 0.0567 M⁻¹ s⁻¹
reactivation of AChE inhibited by SIMP, maximal activities (huAChE adduct with SIMP): poorly re-activatable

CCN(CC)Cc1cc(N)ccc1O
solubility (Solubility): more soluble than amodiaquine
reactivation of BuChE [4]: do not reactivate
liver histology (BALB mice; maximum dose (120 mg/kg)): no pathomorphological changes
effect on mice up to seven days after injection (BALB mice; up to 120 mg/kg by injection): no effect

Clc1ccc(OCCCCCn2ccnc2)c(Cl)c1
solubility (Solubility): more soluble than amodiaquine

CC12CC3CC(C)(C1)CC(N)(C3)C2
activation of AChE activity (AChE [7]): activators

COc1cc2ccc(=O)oc2cc1O
reactivation activity on inhibited AChE (AChE [1]): reactivators of AChE
reactivation activity on inhibited AChE (AChE [1]; listed as Scopoletin): comparable to pralidoxine activity
